3 compounds from US12122815B2, “GIP receptor agonist peptide compounds and uses thereof” (TAKEDA PHARMACEUTICAL COMPANY LIMITED, priority 2018, dated 2024) can be followed below.

By UniProt entry, the sequences of proteins in these tests, tags left out. Residues count along the entry.
UniProt P43220, 24-463: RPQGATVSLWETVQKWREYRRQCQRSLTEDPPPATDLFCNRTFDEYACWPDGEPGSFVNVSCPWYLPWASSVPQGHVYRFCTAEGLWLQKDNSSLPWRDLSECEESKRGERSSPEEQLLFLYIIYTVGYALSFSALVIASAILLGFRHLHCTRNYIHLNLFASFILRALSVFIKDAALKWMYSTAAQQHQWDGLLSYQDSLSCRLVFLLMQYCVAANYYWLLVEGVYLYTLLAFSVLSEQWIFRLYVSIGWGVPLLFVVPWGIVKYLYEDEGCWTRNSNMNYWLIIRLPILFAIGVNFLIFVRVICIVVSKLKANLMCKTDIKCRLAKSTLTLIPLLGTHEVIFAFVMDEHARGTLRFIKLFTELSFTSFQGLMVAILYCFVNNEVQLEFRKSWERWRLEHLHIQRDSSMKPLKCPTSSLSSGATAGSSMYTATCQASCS

As a reminder, the EC50 is the concentration giving half of the maximal effect. High values mean a need for much substance, low ones an effect from little substance.

Experiment [1] has as its target T1, human GIPR (Homo sapiens, UniProt P48546).
T1 construct: FLAG (N)
T1 sequence (P48546 22-466): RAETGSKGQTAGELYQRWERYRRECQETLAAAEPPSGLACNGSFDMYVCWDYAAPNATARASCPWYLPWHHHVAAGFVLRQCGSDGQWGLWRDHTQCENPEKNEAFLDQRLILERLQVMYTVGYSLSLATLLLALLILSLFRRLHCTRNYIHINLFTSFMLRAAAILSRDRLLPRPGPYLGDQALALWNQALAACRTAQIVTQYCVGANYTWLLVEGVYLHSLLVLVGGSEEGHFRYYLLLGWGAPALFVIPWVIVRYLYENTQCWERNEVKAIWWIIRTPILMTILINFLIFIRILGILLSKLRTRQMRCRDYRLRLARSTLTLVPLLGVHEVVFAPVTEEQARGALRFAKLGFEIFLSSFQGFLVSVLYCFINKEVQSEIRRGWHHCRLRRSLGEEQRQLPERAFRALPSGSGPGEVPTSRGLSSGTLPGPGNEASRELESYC
In words: Agonist activity on human GIPR, CRE-luciferase reporter assay with increase in intracellular cAMP as indicator (hGIPR/CRE-LUC/CHO-K1 cell). The experiment is classed as cell-based.

The target of experiment [2] is T2, human GLP-1R (Homo sapiens, UniProt P43220).
T2 construct: FLAG (N)
In words: Agonist activity on human GLP-1R, CRE-luciferase reporter assay with increase in intracellular cAMP as indicator (hGLP-1R/CRE-luc/CHO-K1 cell). The experiment is classed as cell-based.

Take `CC[C@H](C)[C@H](NC(=O)[C@H](CO)NC(=O)[C@H](Cc1ccc(O)cc1)NC(=O)[C@H](CC(C)C)NC(=O)[C@H](CO)NC(=O)[C@@H](NC(=O)[C@@H](NC(=O)[C@@H](NC(=O)CNC(=O)[C@H](CCC(=O)O)NC(=O)C(C)(C)NC(=O)[C@@H](N)Cc1ccc(O)cc1)[C@@H](C)O)C(C)C)C(C)C)C(=O)NC(C)(C)C(=O)N[C@@H](CC(C)C)C(=O)N[C@@H](CC(=O)O)C(=O)N[C@@H](CCCCN)C(=O)N[C@@H](CCC(N)=O)C(=O)N[C@@H](C)C(=O)N[C@@H](CCC(N)=O)C(=O)NC(C)(C)C(=O)N[C@@H](CCC(=O)O)C(=O)N[C@@H](Cc1ccccc1)C(=O)N[C@H](C(=O)N[C@@H](CCCCN)C(=O)N[C@@H](Cc1c[nH]c2ccccc12)C(=O)N[C@@H](CC(C)C)C(=O)N[C@@H](CC(C)C)C(=O)N[C@@H](CCCCN)C(=O)NCC(=O)NCC(=O)N1CCC[C@H]1C(=O)N[C@@H](CO)C(=O)N[C@@H](CO)C(=O)NCC(=O)N[C@@H](C)C(=O)N1CCC[C@H]1C(=O)N1CCC[C@H]1C(=O)N1CCC[C@H]1C(=O)N[C@@H](CO)C(=O)N[C@@H](CCCCNC(=O)CCCCCCCCCCCCCCCCCCC(=O)O)C(N)=O)C(C)C` [Compound 1]: the figures for the 50% effective concentration (EC50) in experiment [1] and in experiment [2] were 0.76 nM and > 1000 nM, respectively.
Take `CC[C@H](C)[C@H](NC(=O)[C@H](CO)NC(=O)[C@H](Cc1ccc(O)cc1)NC(=O)[C@H](CC(C)C)NC(=O)[C@H](CO)NC(=O)[C@@H](NC(=O)[C@@H](NC(=O)[C@@H](NC(=O)CNC(=O)[C@H](CCC(=O)O)NC(=O)C(C)(C)NC(=O)[C@@H](N)Cc1ccc(O)cc1)[C@@H](C)O)C(C)C)C(C)C)C(=O)NC(C)(C)C(=O)N[C@@H](CC(C)C)C(=O)N[C@@H](CC(=O)O)C(=O)N[C@@H](CCCCN)C(=O)N[C@@H](CCC(N)=O)C(=O)N[C@@H](C)C(=O)N[C@@H](CCC(N)=O)C(=O)NC(C)(C)C(=O)N[C@@H](CCC(=O)O)C(=O)N[C@@H](Cc1ccccc1)C(=O)N[C@H](C(=O)N[C@@H](CCCCN)C(=O)N[C@@H](Cc1c[nH]c2ccccc12)C(=O)N[C@@H](CC(C)C)C(=O)N[C@@H](CC(C)C)C(=O)N[C@@H](CCCCN)C(=O)NCC(=O)NCC(=O)N1CCC[C@H]1C(=O)N[C@@H](CO)C(=O)N[C@@H](CO)C(=O)NCC(=O)N[C@@H](C)C(=O)N1CCC[C@H]1C(=O)N1CCC[C@H]1C(=O)N1CCC[C@H]1C(=O)N[C@@H](CO)C(=O)N[C@@H](CCCCNC(=O)CNC(=O)CNC(=O)CNC(=O)CNC(=O)CCCCCCCCCCCCCCC(=O)O)C(N)=O)C(C)C` [Compound 7]: the EC50 in experiment [2] was > 1000 nM.
On the same count and under the same terms, for `CC[C@H](C)[C@H](NC(=O)[C@H](CO)NC(=O)[C@H](Cc1ccc(O)cc1)NC(=O)[C@H](CC(C)C)NC(=O)[C@H](CO)NC(=O)[C@@H](NC(=O)[C@@H](NC(=O)[C@@H](NC(=O)CNC(=O)[C@H](CCC(=O)O)NC(=O)C(C)(C)NC(=O)[C@@H](N)Cc1ccc(O)cc1)[C@@H](C)O)C(C)C)C(C)C)C(=O)NC(C)(C)C(=O)N[C@@H](CC(C)C)C(=O)N[C@@H](CC(=O)O)C(=O)N[C@@H](CCCCN)C(=O)N[C@@H](CCC(N)=O)C(=O)N[C@@H](C)C(=O)N[C@@H](CCC(N)=O)C(=O)NC(C)(C)C(=O)N[C@@H](CCC(=O)O)C(=O)N[C@@H](Cc1ccccc1)C(=O)N[C@H](C(=O)N[C@@H](CCCCN)C(=O)N[C@@H](Cc1c[nH]c2ccccc12)C(=O)N[C@@H](CC(C)C)C(=O)N[C@@H](CC(C)C)C(=O)N[C@@H](CCCCN)C(=O)NCC(=O)NCC(=O)N1CCC[C@H]1C(=O)N[C@@H](CO)C(=O)N[C@@H](CO)C(=O)NCC(=O)N[C@@H](C)C(=O)N1CCC[C@H]1C(=O)N1CCC[C@H]1C(=O)N1CCC[C@H]1C(=O)N[C@@H](CO)C(=O)N[C@@H](CCCCNC(=O)CCCCCCCCCCCCCCC(=O)O)C(N)=O)C(C)C` [Compound 9] the value was 190 nM.
